This assay addresses blood DPP-4 activity (Rattus norvegicus, UniProt P14740). The assay is described as follows: In vivo DPP-4 inhibition assay (blood DPP-4 activity). Conditions: SD rats, single oral dose 10 mg/kg.

The chains behind the UniProt entries cited, without tags or fusion partners. Residues count along the entry.
UniProt P14740, 37-767 limits assumed: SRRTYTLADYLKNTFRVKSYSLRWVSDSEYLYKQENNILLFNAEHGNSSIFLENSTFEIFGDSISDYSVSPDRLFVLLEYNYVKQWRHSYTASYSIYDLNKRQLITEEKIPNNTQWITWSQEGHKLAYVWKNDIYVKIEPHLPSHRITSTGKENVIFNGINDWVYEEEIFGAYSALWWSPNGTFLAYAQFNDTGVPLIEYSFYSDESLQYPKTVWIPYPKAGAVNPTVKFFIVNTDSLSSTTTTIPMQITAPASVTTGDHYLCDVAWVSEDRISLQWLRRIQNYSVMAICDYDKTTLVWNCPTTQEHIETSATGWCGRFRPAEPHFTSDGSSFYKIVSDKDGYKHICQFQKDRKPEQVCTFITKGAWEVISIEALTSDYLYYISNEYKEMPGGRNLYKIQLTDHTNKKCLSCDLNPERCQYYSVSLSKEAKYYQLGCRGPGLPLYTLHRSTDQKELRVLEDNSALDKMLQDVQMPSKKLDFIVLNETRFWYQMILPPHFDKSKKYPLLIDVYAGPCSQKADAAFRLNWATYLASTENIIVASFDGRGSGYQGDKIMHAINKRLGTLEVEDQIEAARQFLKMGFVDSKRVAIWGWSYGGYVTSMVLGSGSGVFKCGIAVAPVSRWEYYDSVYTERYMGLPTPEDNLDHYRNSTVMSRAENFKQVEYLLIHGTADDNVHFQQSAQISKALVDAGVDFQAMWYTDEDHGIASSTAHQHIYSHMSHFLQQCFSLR

`Cn1c(=O)cc(N2CCC[C@@H](N)C2)n(Cc2ccccc2C#N)c1=O` [Alogliptin, reference compound]: the DPP-4 blood activity reads like this: (12 h) 20.95%; (24 h) 56.1%; (48 h) 97.05%.

(Values after article PMC7918823 (2021).)
